# Laboratory results published in patent publication US10570099B2, “Salts of an epidermal growth factor receptor kinase inhibitor” (Celgene CAR LLC, priority 2012, dated 2020).
# Tested on: mutant EGFR kinase
# Test: Inhibition of mutant EGFR kinase (enzymatic and cellular assays)
# Assay type: biochemical
# Conditions: not given
row,SMILES,selectivity for mutant EGFR as compared to wild-type (WT) EGFR
1,C=CC(=O)Nc1cccc(Nc2nc(Nc3ccc(N4CCN(C(C)=O)CC4)cc3OC)ncc2C(F)(F)F)c1 [Compound 2],selective inhibitor

# Tested on: not listed separately
# Test: Competitive slurry experiments Form I vs. Form III
# Assay type: physicochemical
# Conditions: Form I vs. Form III in acetone, isopropanol and isopropyl acetate, ambient and 60° C., ca. 3 days
# Protocol: Competitive slurry experiments were set up in acetone, isopropanol, acetone:water (80:20) and isopropyl acetate at both room temperature (ca. 22° C.) and 60° C. Approximately 200 mg of each of Forms I and III material was placed into a vial and 4 mL of the appropriate solvent system was added to produce a slurry. For each experiment, the slurries were allowed to stir for ca. 3 days. Analysis by XRPD was then conducted to determine the form of the resultant solid. Competitive slurry experiments of Form I vs. Form III were carried out in 4 solvent systems and resulting solids were analysed by XRPD analysis (FIG. 82 and FIG. 83).
row,SMILES,relative thermodynamic stability of forms
1,Br.C=CC(=O)Nc1cccc(Nc2nc(Nc3ccc(N4CCN(C(C)=O)CC4)cc3OC)ncc2C(F)(F)F)c1 [Form I hydrobromide salt],thermodynamically most stable form

# Tested on: not listed separately
# Test: Shake flask solubility of potential salts in aqueous medium (pH<2)
# Assay type: physicochemical
# Conditions: pH<2, ca. 24 hours shaking, HPLC
# Protocol: The solubility of the potential salts was tested using a shake flask method whereby a slurry of each salt was prepared in deionized water and the pH of the reaction was reduced to below pH 2 by adding a small amount of the counterion used for salt formation. The pH was tested using universal indicator paper.
# (open vials). TGA was carried out after the stability studies for samples containing sufficient material.
row,SMILES,Approximate Solubility
1,C=CC(=O)Nc1cccc(Nc2nc(Nc3ccc(N4CCN(C(C)=O)CC4)cc3OC)ncc2C(F)(F)F)c1.CC1(C)C2CCC1(CS(=O)(=O)O)C(=O)C2 [Camphor-10-sulfonic acid (1 eq.) Form I],1050 µg/mL
2,C=CC(=O)Nc1cccc(Nc2nc(Nc3ccc(N4CCN(C(C)=O)CC4)cc3OC)ncc2C(F)(F)F)c1.O=C(O)/C=C\C(=O)O [Maleate Form I],168 µg/mL
3,C=CC(=O)Nc1cccc(Nc2nc(Nc3ccc(N4CCN(C(C)=O)CC4)cc3OC)ncc2C(F)(F)F)c1.Cc1ccc(S(=O)(=O)O)cc1.Cc1ccc(S(=O)(=O)O)cc1 [Tosylate (2 equiv.) Form I],89 µg/mL
4,C=CC(=O)Nc1cccc(Nc2nc(Nc3ccc(N4CCN(C(C)=O)CC4)cc3OC)ncc2C(F)(F)F)c1.O=S(=O)(O)c1cccc2c(S(=O)(=O)O)cccc12,Below LOQ
5,C=CC(=O)Nc1cccc(Nc2nc(Nc3ccc(N4CCN(C(C)=O)CC4)cc3OC)ncc2C(F)(F)F)c1.O=S(=O)(O)c1ccccc1 [Besylate (1 equiv.) Form II],55 µg/mL
6,C=CC(=O)Nc1cccc(Nc2nc(Nc3ccc(N4CCN(C(C)=O)CC4)cc3OC)ncc2C(F)(F)F)c1.CC1(C)C2CCC1(CS(=O)(=O)O)C(=O)C2 [Camphor-10-sulfonic acid (1 eq.) Form II],580 µg/mL
7,Br.C=CC(=O)Nc1cccc(Nc2nc(Nc3ccc(N4CCN(C(C)=O)CC4)cc3OC)ncc2C(F)(F)F)c1 [Form I hydrobromide salt],1270 µg/mL
8,C=CC(=O)Nc1cccc(Nc2nc(Nc3ccc(N4CCN(C(C)=O)CC4)cc3OC)ncc2C(F)(F)F)c1.O=C(O)/C=C\C(=O)O [Maleate Form III],251 µg/mL
9,C=CC(=O)Nc1cccc(Nc2nc(Nc3ccc(N4CCN(C(C)=O)CC4)cc3OC)ncc2C(F)(F)F)c1.O=S(=O)(O)c1ccc2ccccc2c1.O=S(=O)(O)c1ccc2ccccc2c1 [Naphthalene-2-sulfonic acid (2 eq.) Form II],860 µg/mL
10,C=CC(=O)Nc1cccc(Nc2nc(Nc3ccc(N4CCN(C(C)=O)CC4)cc3OC)ncc2C(F)(F)F)c1.Cc1ccc(S(=O)(=O)O)cc1.Cc1ccc(S(=O)(=O)O)cc1 [Tosylate (2 equiv.) Form II],303 µg/mL
11,Br.Br.C=CC(=O)Nc1cccc(Nc2nc(Nc3ccc(N4CCN(C(C)=O)CC4)cc3OC)ncc2C(F)(F)F)c1 [HBr (2 eq.) Form II],2380 µg/mL
12,C=CC(=O)Nc1cccc(Nc2nc(Nc3ccc(N4CCN(C(C)=O)CC4)cc3OC)ncc2C(F)(F)F)c1.O=S(=O)(O)c1cccc2c(S(=O)(=O)O)cccc12.O=S(=O)(O)c1cccc2c(S(=O)(=O)O)cccc12,Below LOQ
13,C=CC(=O)Nc1cccc(Nc2nc(Nc3ccc(N4CCN(C(C)=O)CC4)cc3OC)ncc2C(F)(F)F)c1.Cl [Hydrochloride (1 equiv.) Form I],400 µg/mL
14,C=CC(=O)Nc1cccc(Nc2nc(Nc3ccc(N4CCN(C(C)=O)CC4)cc3OC)ncc2C(F)(F)F)c1.O=C(O)/C=C\C(=O)O [Maleate Form II],271 µg/mL
15,C=CC(=O)Nc1cccc(Nc2nc(Nc3ccc(N4CCN(C(C)=O)CC4)cc3OC)ncc2C(F)(F)F)c1.CC1(C)C2CCC1(CS(=O)(=O)O)C(=O)C2.CC1(C)C2CCC1(CS(=O)(=O)O)C(=O)C2 [Camphor-10-sulfonic acid (2 eq.) Form I],890 µg/mL
16,C=CC(=O)Nc1cccc(Nc2nc(Nc3ccc(N4CCN(C(C)=O)CC4)cc3OC)ncc2C(F)(F)F)c1.Cc1ccc(S(=O)(=O)O)cc1 [Tosylate (1 equiv.) Form I],104 µg/mL
17,C=CC(=O)Nc1cccc(Nc2nc(Nc3ccc(N4CCN(C(C)=O)CC4)cc3OC)ncc2C(F)(F)F)c1.O=S(=O)(O)c1ccc2ccccc2c1.O=S(=O)(O)c1ccc2ccccc2c1 [Naphthalene-2-sulfonic acid (2 eq.) Form III],740 µg/mL
18,C=CC(=O)Nc1cccc(Nc2nc(Nc3ccc(N4CCN(C(C)=O)CC4)cc3OC)ncc2C(F)(F)F)c1.Cl.Cl [Hydrochloride (2 equiv.) Form I],196 µg/mL
19,C=CC(=O)Nc1cccc(Nc2nc(Nc3ccc(N4CCN(C(C)=O)CC4)cc3OC)ncc2C(F)(F)F)c1.O=S(=O)(O)c1ccc2ccccc2c1.O=S(=O)(O)c1ccc2ccccc2c1 [Naphthalene-2-sulfonic acid (2 eq.) Form I],870 µg/mL
20,C=CC(=O)Nc1cccc(Nc2nc(Nc3ccc(N4CCN(C(C)=O)CC4)cc3OC)ncc2C(F)(F)F)c1.CS(=O)(=O)O.CS(=O)(=O)O [Mesylate Form I],7286 µg/mL
21,C=CC(=O)Nc1cccc(Nc2nc(Nc3ccc(N4CCN(C(C)=O)CC4)cc3OC)ncc2C(F)(F)F)c1.O=S(=O)(O)c1ccccc1.O=S(=O)(O)c1ccccc1 [Besylate (2 equiv.) Form II],44 µg/mL
22,C=CC(=O)Nc1cccc(Nc2nc(Nc3ccc(N4CCN(C(C)=O)CC4)cc3OC)ncc2C(F)(F)F)c1.O=S(=O)(O)c1ccccc1 [Besylate (1 equiv.) Form I],47 µg/mL
23,C=CC(=O)Nc1cccc(Nc2nc(Nc3ccc(N4CCN(C(C)=O)CC4)cc3OC)ncc2C(F)(F)F)c1.O=C(O)C(=O)O [Oxalate Form II],220 µg/mL
24,C=CC(=O)Nc1cccc(Nc2nc(Nc3ccc(N4CCN(C(C)=O)CC4)cc3OC)ncc2C(F)(F)F)c1.O=C(O)C(=O)O [Oxalate Form I],158 µg/mL
25,C=CC(=O)Nc1cccc(Nc2nc(Nc3ccc(N4CCN(C(C)=O)CC4)cc3OC)ncc2C(F)(F)F)c1.O=S(=O)(O)c1ccc2ccccc2c1.O=S(=O)(O)c1ccc2ccccc2c1 [Naphthalene-2-sulfonic acid (2 eq.) Form IV],760 µg/mL
26,C=CC(=O)Nc1cccc(Nc2nc(Nc3ccc(N4CCN(C(C)=O)CC4)cc3OC)ncc2C(F)(F)F)c1.Cc1ccc(S(=O)(=O)O)cc1 [Tosylate (1 equiv.) Form II],422 µg/mL

# Same assay, conditions: pH<2, ca. 24 hours shaking, HPLC, listed as Besylate (2 equiv.) Form I
row,SMILES,Approximate Solubility
1,C=CC(=O)Nc1cccc(Nc2nc(Nc3ccc(N4CCN(C(C)=O)CC4)cc3OC)ncc2C(F)(F)F)c1.O=S(=O)(O)c1ccccc1.O=S(=O)(O)c1ccccc1 [bis-besylate salt],4264 µg/mL

# Tested on: not listed separately
# Test: Thermodynamic solubility in media of various pH (HPLC; XRPD of excess solids)
# Conditions: pH 3.0, Citrate/Phosphate, ca. 24 hours
# Protocol: The remaining solids were also analysed by XRPD analysis to establish if any changes in the solid form occurred.
# The remaining solids were also analysed by XRPD analysis to establish if any changes in the solid form occurred. For the buffer solutions, KCl/HCl was used for pH 1 and citrate/phosphate combinations for pH 3, 4.5 and 6.6.
# The remaining solids were also analysed by XRPD analysis to establish if any changes in the solid form occurred. For the buffer solutions, KCl/HCl was used for pH 1 and citric acid/sodium citrate combinations for pH 3, 4.5 and 6.2.
# The solids were then removed by filtration and tested by XRPD analysis. The mother liquors were analyzed by HPLC to determine API solubility.
# For the buffer solutions, KCl/HCl was used for pH 1 and citrate/phosphate combinations for pH 3, 4.5 and 6.6 (10 mM). The pH of the solutions was also measured prior to HPLC analysis.
row,SMILES,Thermodynamic Solubility
1,Br.C=CC(=O)Nc1cccc(Nc2nc(Nc3ccc(N4CCN(C(C)=O)CC4)cc3OC)ncc2C(F)(F)F)c1 [Form III hydrobromide salt],840 µg/mL

# Same assay, conditions: pH 6.6, Citrate/Phosphate, ca. 24 hours
row,SMILES,Thermodynamic Solubility
1,Br.C=CC(=O)Nc1cccc(Nc2nc(Nc3ccc(N4CCN(C(C)=O)CC4)cc3OC)ncc2C(F)(F)F)c1 [Form III hydrobromide salt],420 µg/mL
